Experimental data: PMC4080885

The chains behind the UniProt entries cited, without tags or fusion partners. Residues count along the entry.
UniProt P12318, 34-317: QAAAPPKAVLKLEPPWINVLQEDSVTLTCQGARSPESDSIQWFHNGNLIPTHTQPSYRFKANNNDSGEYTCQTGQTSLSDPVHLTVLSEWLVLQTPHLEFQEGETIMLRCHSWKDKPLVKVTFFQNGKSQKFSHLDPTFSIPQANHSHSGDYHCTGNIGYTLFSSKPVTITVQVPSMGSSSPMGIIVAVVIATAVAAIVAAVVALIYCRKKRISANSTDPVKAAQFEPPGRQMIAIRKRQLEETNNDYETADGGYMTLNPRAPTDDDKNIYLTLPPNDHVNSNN

Experiments:
Assay in all cases: flow cytometry on cells
[1] = molecular target: M. nemestrina FcγRIIa allele 1 (Macaca nemestrina)
[2] = molecular target: M. nemestrina FcγRIIb1 (Macaca nemestrina)
[3] = molecular target: mnFcγRIIa-allele2 HLD +LF (Mutant 5: PMN→HLD with PY→LF) (Macaca nemestrina)
[4] = molecular target: human FcγRIIa-His131 (human) (UniProt P12318)
[5] = molecular target: mnFcγRIIa-allele2 HLD (Mutant 3: P131H, M132L, N133D) (Macaca nemestrina)
[6] = molecular target: M. nemestrina FcγRIIa allele 2 (Macaca nemestrina)
[7] = molecular target: human FcγRIIa-His131 (human) (UniProt P12318); remark: listed apart in the source

Row | Substance | MFI [1] | fold greater binding than huFcγRIIb [2] | fold increase of binding against mnFcγRIIa-allele2 HLD [3] | MFI [4] | MFI [5] | MFI [6] | MFI [7]
1 | human myeloma IgG1κ (antibody) | 5000 | 10 fold | 5 fold | 57200 | 2900 | – | –
2 | human myeloma IgG3κ (antibody) | 70300 | – | – | 70100 | 53400 | 11600 | 71000
3 | human myeloma IgG2κ (antibody) | 360 | – | 10 fold | 3600 | 300 | – | –

Like-named read-outs stand apart in the source and are kept apart here.
